{"source": "PubChem BioAssay AID1978", "about": "(The Scripps Research Institute Molecular Screening Center, 2009)", "note": "The list shows a part of the results, in another mix than the full data. Calls of active or inactive are those of the source.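 How the source made its calls: active means inhibition above a limit from the primary screen, the mean over all compounds plus 3 SD (cut at about 19% in these data); inactive means the rest.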", "data": [{"test_system": "Fam108b (Abhd17b) serine hydrolase [Mus musculus]", "test": "mouse Fam108b serine hydrolase inhibitors, confirmation, counter-screen for RBBP9 inhibitor project, biochemical, fluorescence polarization, triplicate (AID 1978);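 further: 0% = median of active Fam108b wells and 100% = catalytically dead S170A mutant; inhibitors free the probe so polarization falls as inhibition rises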", "settings": "recombinant Fam108b, FP-Rh probe fluorescence polarization; at 9.51 µM; hits give high values", "values": [{"compound": "C[N+]1=C2C=CC=CC=C2SC12C([N+](=O)[O-])=CC([N+](=O)[O-])=C[C-]2[N+](=O)[O-]", "note": "(centres undefined)", "inhibition": "inactive: 15.8%"}, {"compound": "O=[N+]([O-])c1cc([N+](=O)[O-])c(CCN2CCOCC2)c([N+](=O)[O-])c1", "inhibition": "active: 28.5%"}, {"compound": "Nc1cccc2c([As](=O)(O)O)cccc12", "inhibition": "inactive: -0.23%"}, {"compound": "CN(C)C(=O)c1cc([N+](=O)[O-])cc2c1-c1c(cc([N+](=O)[O-])cc1[N+](=O)[O-])C2=O", "inhibition": "active: 42.5%"}]}]}
